PubChem BioAssay AID1471 (National Center for Advancing Translational Sciences (NCATS), 2008)
The entries are a selection whose mix differs from that of the whole data set. Active and inactive are the calls of the source. Calls come from the whole dose curve; as a rule, active = well fitted activation curve with a large enough effect; inconclusive = small, poorly fitted or top-dose-only effect; inactive = no such curve, though single readings can be large or run the other way.

Assay: qHTS Multiplex Assay to Identify Dual Action Probes in a Cell Model of Huntington: Cytoprotection (ATP);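 note: toxic huntingtin expression switched on by the ecdysone agonist tebufenozide; % of control where 0% means no effect; nearly all actives have a fitted effect of over 45% in size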
Settings: PC12 HTT-Q103 induced, ATP luminescence, 40 h; at 56.4 µM (top of the series) unless noted
Source text: NIH Chemical Genomics Center [NCGC]
NIH Molecular Libraries Probe Production centers Network [MLPCN]
Assay Submitter (PI): Wei Zheng
Huntington's disease is a neurodegenerative disorder caused by a trinucleotide repeat expansion in Exon 1 of the Huntingtin gene. The CAG trinucleotide encodes glutamine and polyglutamine expansions cause cell death in selective areas of the brain. Huntington polyglutamine repeats have the tendency to form aggregates which are observable in later stages of the disease. The exact nature of the aggregates, whether toxic, protective, or insignificant, is unclear.
A stable PC12 cell line containing a gene fusion of Exon 1 of the Huntingtin gene linked to GFP under the control of the inducible ecdysone promoter were used as the cell-based model of Huntington Disease for high throughput screening. Exon 1 of the Huntingtin gene contained an expansion of 103 polyglutamines (Q103) which, when expressed, caused cell death and distinct, bright GFP aggregates. The amount of cell death and the size and intensity of GFP aggregates increased over time and induction level. The cell death were quantified with a measurement of ATP content in the cells. A maximal 40-50% of cell death was observed when the Huntington gene was induced in this cell line.
We optimized this assay in a homogeneous 1536 well format. A quantitative high throughput screen (qHTS) was conducted on the PC12 cells which were induced to express the toxic fusion construct. Small molecules which prevented cell death were identified by using a luminescent ATP quantification method (Perkin Elmer's ATPlite).
PC12 cells stably containing a construct with an ecdysone inducible promoter expressing GFP fused to the exon 1 of HTTQ103 (Huntington protein which containing a 103 ployglutamine expansion) were used.
NCGC Assay Protocol Summary:
Sequence, Parameter, Description
1, Reagent, 5 uL 1500 cells/well 1536 TC treated White clear bottom plate
2, Compound, 23 nL Tebufenozide inducer (100 nM final) to all columns
3, Compound, 23 nL 40 uM to 0.5 nM Libraries
5, Reagent, 5 ul ATPLite cell death assay reagent
6, Detector, 4 sec integration with a Viewlux Luminescent
Media consisted of phenol red free DMEM + 5% equine serum (Hyclone # SH30072.03 ), 5% supplemented Bovine Calf Serum (Hyclone # SH30074.03 ), 1x pen/strep, no G418
Control columns: 1 = DMSO, 2= 2 uM teb dilns (1:1), 4 = 100 nM Teb inducer. Sample columns received 100 nM Teb.
For CP(=O)(Nc1ccccc1F)Oc1ccccc1 (centres undefined), the cytoprotection (ATP increase) was inactive: -11.7%. With CC(C)c1ccc(OP(C)(=O)Nc2ccc(SC(F)(F)F)cc2)cc1 (centres undefined) the cytoprotection (ATP increase) was inactive: 1.05% [at 10 µM]. In the case of O=C(OCCN1CCN(CCOCc2ccccc2)CC1)C(O)(c1ccccc1)c1ccccc1, the cytoprotection (ATP increase) is reported as inactive: 13.3% [at 10 µM]. In the case of Cc1cccc([N+](=O)[O-])c1[N+](=O)[O-], the cytoprotection (ATP increase) is reported as inactive: 0.228%. With CCC(C)(OO)OOC(C)(CC)OO (centres undefined) the cytoprotection (ATP increase) was inactive: -5.5%. With COc1ccc(OP(C)(=O)Nc2ccc(SC(F)(F)F)cc2)cc1 (centres undefined) the cytoprotection (ATP increase) was inactive: -40%. With CCN(CC)CCCOC(=O)C(O)(c1ccccc1)C1CCCCC1 (centres undefined) the cytoprotection (ATP increase) was inactive: 3.16% [at 1.9 µM]. For CP(=O)(Nc1ccccc1)Oc1ccc(F)cc1 (centres undefined), the cytoprotection (ATP increase) was inactive: 14.1%. With CCCCCOc1ccc(NP(C)(=O)Oc2ccc(Cl)cc2Cl)cc1 (centres undefined) the cytoprotection (ATP increase) was inactive: 16.6% [at 10 µM]. With COc1ccc(OP(C)(=O)Nc2cccc(Br)c2)cc1 (centres undefined) the cytoprotection (ATP increase) was inactive: 16.8%. With CN(C)CCOC(=O)C(O)(c1ccccc1)C1CCCCC1 (centres undefined) the cytoprotection (ATP increase) was inactive: 11.9% [at 10 µM]. For COc1ccc(NP(C)(=O)Oc2ccccc2OC)cc1 (centres undefined), the cytoprotection (ATP increase) was inactive: -26.5%. In the case of O=[N+]([O-])c1ccc(OP2(=O)COCCO2)cc1 (centres undefined), the cytoprotection (ATP increase) is reported as inactive: 12.8% [at 10 µM]. With Cc1cc(-c2cccc3ccccc23)c(C)cn1.O=[N+]([O-])c1cc([N+](=O)[O-])c(O)c([N+](=O)[O-])c1 the cytoprotection (ATP increase) was inactive: 26.9% [at 10 µM]. In the case of Cc1ccc([N+](=O)[O-])c([N+](=O)[O-])c1, the cytoprotection (ATP increase) is reported as inactive: -15%. In the case of Cc1c([N+](=O)[O-])cccc1[N+](=O)[O-], the cytoprotection (ATP increase) is reported as inactive: 0.6%. In the case of CP(=O)(Nc1ccc(SC(F)(F)F)cc1)Oc1ccc(F)cc1 (centres undefined), the cytoprotection (ATP increase) is reported as inactive: 0.574% [at 10 µM]. For CCOP(C)(=S)SCC(=O)NC(C)(CC)C(=O)O (centres undefined), the cytoprotection (ATP increase) was inactive: -29.5% [at 0.074 µM]. In the case of CCOP(=O)(CC)OCC, the cytoprotection (ATP increase) is reported as inactive: -31.7%. With CP(=O)(Nc1ccc2c(c1)OCCO2)Oc1ccccc1 (centres undefined) the cytoprotection (ATP increase) was inactive: -2.29%. With [NH4+].[O-][Cl+3]([O-])([O-])[O-] the cytoprotection (ATP increase) was inactive: -15.4%. In the case of Cc1ccccc1NP(C)(=O)Nc1ccccc1C, the cytoprotection (ATP increase) is reported as inactive: 4.57% [at 0.074 µM]. For NNC(NN)NN.n1nc(-c2nn[nH]n2)n[nH]1, the cytoprotection (ATP increase) was inactive: -9.12% [at 10 µM]. In the case of CCN(CC)CC(O)COC(=O)C(O)(c1ccccc1)C1CCCCC1 (centres undefined), the cytoprotection (ATP increase) is reported as inactive: -5.54%. In the case of OCCSCCO, the cytoprotection (ATP increase) is reported as inactive: -4%. In the case of O=C(OCCCN1CCCC1)C(O)(c1ccccc1)C1CCCCC1 (centres undefined), the cytoprotection (ATP increase) is reported as inactive: -98.7% [at 10 µM]. In the case of COc1ccccc1OP(C)(=O)Nc1c(C)n(C)n(-c2ccccc2)c1=O (centres undefined), the cytoprotection (ATP increase) is reported as inactive: 1.45%. For CCc1ccc(OP(C)(=O)Nc2cccnc2)cc1 (centres undefined), the cytoprotection (ATP increase) was inactive: -21.3%. With CP(=O)(Oc1ccccc1)N1CCOC1=O (centres undefined) the cytoprotection (ATP increase) was inactive: 4%. In the case of CC(C)(C)c1ccc(OP(C)(=O)O)cc1, the cytoprotection (ATP increase) is reported as inactive: -16.6%. In the case of COc1ccccc1OP(C)(=O)Nc1ccccc1Br (centres undefined), the cytoprotection (ATP increase) is reported as inactive: -20.1%. In the case of CP(=O)(Nc1ccc(Cl)cc1)Oc1ccc(F)cc1 (centres undefined), the cytoprotection (ATP increase) is reported as inactive: 12.1%. In the case of CN(C)C(=O)c1c([N+](=O)[O-])cc([N+](=O)[O-])cc1[N+](=O)[O-], the cytoprotection (ATP increase) is reported as inactive: -176%. With CCOC(=O)c1ccc(NP(C)(=O)Oc2ccc(Cl)cc2)cc1 (centres undefined) the cytoprotection (ATP increase) was inactive: -12.1% [at 10 µM]. With CP(=O)(OC12CC3CC(CC(C3)C1)C2)OC12CC3CC(CC(C3)C1)C2 the cytoprotection (ATP increase) was inactive: -6.52%. For CC(C)OP(=O)(F)OC(C)C, the cytoprotection (ATP increase) was inactive: 25.3%. With C/C1=C2N=C(/C=C3N=C(/C(C)=C4\[N-][C@@](C)([C@H]5N=C1[C@@](C)(CCC(=O)NC[C@H](C)OP(=O)([O-])O[C@@H]1[C@H](O)[C@H](n6cnc7cc(C)c(C)cc76)O[C@@H]1CO)[C@@H]5CC(N)=O)[C@](C)(CC(N)=O)[C@H]4CCC(N)=O)[C@@](C)(CC(N)=O)[C@@H]\3CCC(N)=O)C(C)(C)[C@@H]/2CCC(N)=O.[C-]#N.[Co+3] the cytoprotection (ATP increase) was inactive: -38.9% [at 17.1 µM]. With Cc1cc(C)cc(OP(C)(=O)Nc2cccc(C(F)(F)F)c2)c1 (centres undefined) the cytoprotection (ATP increase) was inactive: 12.7% [at 10 µM]. With COc1ccccc1OP(C)(=O)Nc1ccc(C)c(C)c1 (centres undefined) the cytoprotection (ATP increase) was inactive: -12.8% [at 10 µM]. In the case of COc1ccc(OP(C)(=O)Nc2ccccc2Br)cc1 (centres undefined), the cytoprotection (ATP increase) is reported as inactive: 13.9% [at 10 µM]. With Cc1nc2ccc3ccccc3c2o1.O=[N+]([O-])c1cc([N+](=O)[O-])c(O)c([N+](=O)[O-])c1 the cytoprotection (ATP increase) was inactive: -47.5%. For CP(=O)(OCCOc1ccccc1)OCCOc1ccccc1, the cytoprotection (ATP increase) was inactive: -27.4%. With CP(=O)(Nc1ccc(Cl)cc1Cl)Oc1ccccc1 (centres undefined) the cytoprotection (ATP increase) was inactive: 8.15% [at 10 µM]. In the case of COc1ccccc1OP(C)(=O)Nc1ccc(Br)cc1 (centres undefined), the cytoprotection (ATP increase) is reported as inactive: -27.7% [at 10 µM].
